The results in this text go back to US6395913B1, “Recovery and purification of 3,4-epoxy-1-butene” (Eastman Chemical Company, priority 2001, dated 2002).

This data set is described as follows: Extraction affinity of water-immiscible solvents: distribution coefficients against a standard water/3-buten-1,2-diol/epoxybutene solution. The format is physicochemical. As to conditions: 1 part solvent : 1 part standard solution (35% water/65% diol with approx. 10 wt% epoxybutene), room temperature, GC analysis; ONE PHASE = no phase separation. As to the method: This example compares the extraction affinity of various water-immiscible solvents for epoxybutene in the presence of aqueous absorbent mixtures, as occurs in the extraction zone of both embodiments of this invention. A standard mixture of 35% water and 65% 3-buten-1,2-diol (diol) was prepared. […] For each candidate extractant solvent specified in Table 1, one part by weight water-immiscible solvent was added to one part standard water-diol-epoxybutene solution in a separatory funnel. The mixture was vigorously shaken, allowed to settle, then separated into two liquid phases at room temperature. The aqueous and organic layers from the decantation were analyzed by gas chromatography to determine the composition of each layer. From these compositions, distribution coefficients were calculated for epoxybutene, water, diol, and the candidate extractant as follows: [formula]

For the substance n-Butanol, the “Distribution Coefficients Epoxy-Butene” value is given as “ONE PHASE”.
